System: Thr164 receptor
Settings: Chinese hamster fibroblast cells, following washing; n = 5, p = 0.001

loss of cAMP response, half-time: 0.78 ± 0.06 h
Structure (SMILES): OCc1cc(C(O)CNCCCCCCOCCCCc2ccccc2)ccc1O (stereo not shown) [salmeterol]
